For assay [1], the system named is T-Rex 293 cell line SC cells lacking increased expression of progesterone receptor isoform B protein. The assay can be described thus: Cellular growth inhibition, T-Rex 293 SC cells without doxycycline, Example 45. The conditions noted are these: T-Rex 293 SC cells not exposed to doxycycline, 72 hours treatment, CellTiter-Glo 2.0. Here is the method: (§1) The following types of cells were prepared for this experiment: (i) a T-Rex 293 cell line having increased expression of progesterone receptor isoform B protein due to exposure to doxycycline and (ii) a T-Rex 293 cell line lacking increased expression of progesterone receptor isoform B protein. Ability of the test compounds to inhibit proliferation of the foregoing cell types was evaluated according to the procedures set forth below.
(§2) The doxycycline-inducible progesterone receptor isoform B protein expressing cell line was established using the following protocol: T-Rex 293 cells were purchased from Invitrogen (Cat #R71007) and transfected using Lipofectamine 2000 with the wild-type progesterone receptor B protein sequence cloned into the pcDNA4/TO vector. […] Clones were analyzed for expression of progesterone receptor isoform B protein in the presence and absence of 10 ng/mL doxycycline (Sigma Cat #D9891), and a single doxycycline-inducible clone (hereinafter “SC”) was selected for use in downstream assays. […]
(§3) At the end of the treatment duration, cell viability was quantified with CellTiter-Glo 2.0 reagent (Promega Cat #G9243). […] Following incubation, the plates were spun at 3000×g for 30 seconds, then sealed with an optical adhesive cover, and luminescence readings were measured with an EnVision Plate Reader (Perkin Elmer).
(§4) Data was normalized using zero luminescence for baseline. […]
(Cellular ATP, detected with luciferase, serves as a proxy for viable cell number.)

For assay [2], the system named is T-Rex 293 cell line SC cells having increased expression of progesterone receptor isoform B protein due to exposure to doxycycline. Put plainly: Cellular growth inhibition, T-Rex 293 SC cells with doxycycline (progesterone receptor isoform B induced), Example 45. As to conditions: progesterone receptor isoform B induced with 10 ng/mL doxycycline, 72 hours, CellTiter-Glo 2.0, Table 11. On the procedure: as §1, §2, §3, §4

Each structure is given as a SMILES string. Where only a bound is given, the exact number is not on record here.

The GI50 is the concentration at which growth is held to half of that of the control. With `CCNC(=O)C[C@@H]1N=C(c2ccc(CC3CCN(c4ncc(C(=O)N[C@H]5C(C)(C)[C@H](Oc6ccc(C#N)c(Cl)c6)C5(C)C)cn4)CC3)cc2)c2c(sc(C)c2C)-n2c(C)nnc21`, the GI50 was 500 to 1500 nM in assay [1] and less than 500 nM in assay [2].

These data come from US20260062422A1 (Halda Therapeutics OpCo, Inc., priority 2022, published 2026).
